Reference: PMC5120274, “Characterization of the Annonaceous acetogenin, annonacinone, a natural product inhibitor of plasminogen activator inhibitor-1” (Scientific Reports, 2016)

Chains of the proteins cited; added tags and fusions are not shown. Residues count along the entry.
UniProt P05121, 24-402: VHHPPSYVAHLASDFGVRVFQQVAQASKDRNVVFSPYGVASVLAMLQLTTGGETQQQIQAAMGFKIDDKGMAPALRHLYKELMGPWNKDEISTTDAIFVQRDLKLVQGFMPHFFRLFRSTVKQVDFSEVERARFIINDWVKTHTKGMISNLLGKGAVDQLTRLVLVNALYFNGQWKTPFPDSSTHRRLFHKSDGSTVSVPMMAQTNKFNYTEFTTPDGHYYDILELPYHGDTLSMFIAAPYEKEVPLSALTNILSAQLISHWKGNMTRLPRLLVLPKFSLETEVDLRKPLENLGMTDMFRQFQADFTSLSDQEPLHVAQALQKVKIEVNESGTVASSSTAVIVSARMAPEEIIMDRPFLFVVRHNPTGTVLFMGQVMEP

Target: T1, PAI-1 (Homo sapiens, UniProt P05121)
T1 construct: purchased Stago BNL (Asnières sur Seine, FR)
Assay: chromogenic screening assay: rate of tPA inhibition by PAI-1 (spectrozyme tPA hydrolysis)
Assay type: biochemical
Details: without vitronectin, mean ± SEM, n = 3
Procedure: Compounds from our local collection BioCIS and from the Prestwick compound library (Prestwick chemicals, Illkirch, FR), a collection containing only FDA approved drugs (around 4000 compounds in total) were tested in a chromogenic assay measuring the inhibition rate of tPA-catalyzed spectrozyme® tPA hydrolysis in the presence of PAI-1. Compounds (20 μL, final concentration 50 μM, 1% DMSO) were dispensed in a 96 well half area Greiner plate. A mixture containing 20 μL of PAI-1 (final concentration 20 nM) and 80 μL of Spectrozyme-tPA (final concentration 400 μM) was then added, and the mixture pre-incubated for 45 minutes at 37 °C. At the end of pre-incubation time, 90 μL of the mixture were added to another 96 well half area plate containing 10 μL tPA (final concentration 10 nM). The kinetic was then measured at 405 nm for 45 min at 37 °C in an Envision microplate reader. Progress curves were fitted using the pseudo first order equation to determine the apparent rate constant k.

## O=C(O)C(=O)c1cn(Cc2ccccc2)c2ccc(-c3ccc(OC(F)(F)F)cc3)cc12 [Tiplaxtinin, reference compound]
  IC50: 28 ± 1 µM
